Data published in patent publication US4362718A, “Agent for curing peripheral circulation insufficiency” (Yamanouchi Pharmaceutical Co., Ltd., priority 1979, dated 1982).

Columns and labels:
red blood corpuscles [1] = settings: 0.1% solution; saline alone as high as 20%
red blood corpuscles [2] = experiment: Fine opening passability of red blood corpuscles (nitrocellulose membrane filter, 3.0 μm); type: cell-based, human; settings: 0.1% solution; 37° C., 30 minutes; 3.0 μm filter, 80 mmHg/cm^2; compared with α1 -acid glycoprotein

human albumin: commercially available crude human albumin (0.1% solution)
percent hemolysis in case of passing through fine openings (red blood corpuscles [1]): 25 to 30%
passage of red blood corpuscles through the filter (red blood corpuscles [2]): passage of the red blood corpuscles was observed too, but the effect was small as compared with the case of α1 -acid glycoprotein
